## Measured affinities in a library of Ab-14 light chain variants

The measurements come from Li et al. 2023 (doi:10.1038/s41467-023-39022-2) through the FLAb antibody collection.

Target peptide (SARS-CoV-2 spike, HR2 region): PDVDLGDISGINAS

Parent: Ab-14, a human scFv built as VH, a (GGGGS)3 linker, VL. Only the CDRs of the light chain vary.
VH: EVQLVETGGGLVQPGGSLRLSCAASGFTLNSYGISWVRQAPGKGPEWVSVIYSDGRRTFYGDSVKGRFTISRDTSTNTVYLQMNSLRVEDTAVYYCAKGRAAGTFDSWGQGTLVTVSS
VL: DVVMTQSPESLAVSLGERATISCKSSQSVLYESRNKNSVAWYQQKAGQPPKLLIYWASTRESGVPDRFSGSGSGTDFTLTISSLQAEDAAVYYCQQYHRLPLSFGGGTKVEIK

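The starting antibody came from a phage panning campaign against this peptide. Designed CDR sequences, proposed from the first random library and measured here. Several design methods are mixed in this list. The assay is AlphaSeq: two haploid yeast populations carry antibody and antigen on their surface. Binding brings cells together so that they mate, and sequencing counts the barcode pairs among the diploids. Read counts were normalised to the haploid input and turned into Kd by a linear fit to BCL2-family pairs of known affinity, for each replicate. Mating was done six times.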

Variants are written as CDR1, CDR2 and CDR3 of the light chain (limits as in the source). Parent: KSSQSVLYESRNKNSVA, WASTRES, QQYHRLPLS. Affinities are written as log10 Kd with Kd in nM; a lower number is a better binder. "n.d." marks a missing value. The strain was present, yet no cells mated with the target were sequenced in that replicate, which points to weak or no binding.

| CDR-L1 | CDR-L2 | CDR-L3 | log10 Kd (nM) by replicate |
|---|---|---|---|
| KSSGSFLYESRNKNSVA | GASTRES | QQYHRLPLS | 0.03 0.33 0.80 0.30 0.17 0.27 |
| HISMMVGTKGYNKQSVA | NAETRED | QQYHRLPLS | 0.25 0.04 -0.07 0.04 0.02 0.03 |
| KLYQMTGIESHAKNSLA | DANRRED | QQYHRLPLS | 0.09 0.03 -0.03 -0.03 0.03 0.19 |
| KLGQMTASESRNLNSVA | QMDTRES | QQYHRLPLS | 0.38 0.01 0.18 0.14 -0.06 0.26 |
| KFSQWGLYESRTKNSVA | NASTRES | QQYHRLPLS | 0.40 0.17 0.30 0.02 0.41 0.55 |
| HISQSVGMTSFKKNSVA | ENSTRED | QQYDRLPLS | n.d. 1.82 2.42 1.67 2.03 2.30 |
| KVSQSVLYESRNKNNVA | NASTRES | QQYHRLPLS | 0.25 0.09 0.00 0.06 0.06 0.12 |
| KFFQSELDDMRNDNSVA | SASTRLS | QQYHRLPLS | 0.71 0.74 0.32 0.34 0.64 0.45 |
| KSSQSVLYESRNKNSVA | WASTRES | QQYQRLPLS | n.d. 1.90 n.d. n.d. 2.63 2.92 |
| QIQSESEHPYKDKNSMA | DAECKAA | QQYFRLPLM | 0.28 0.15 0.30 0.11 0.45 0.41 |
| KSSQSVLYESRNKNSVA | NASTRDS | QQYMRLPLS | 0.07 0.02 -0.04 -0.13 -0.22 -0.08 |
| KFSQSFLYESRNKNSVA | EASQRES | QQYHRLPLS | -0.74 -0.64 -0.67 -0.75 0.03 -0.51 |
| KSQQSVLYESRNFNSVA | WASTRES | QQYHMLPLS | 2.67 n.d. 2.40 n.d. n.d. n.d. |
| KLSQSVLYESRNKNSVA | WASTRES | GQYHRLPFS | 0.63 0.11 0.60 0.39 -0.03 0.82 |
| KIMQTLNYSSFNVSNVA | GQETRER | QSYHRLPLS | 2.50 2.01 3.81 2.86 2.79 4.30 |
| KFSGSHLYESRMGNSVA | NASQRES | QQYHRLPLS | 0.08 -0.01 -0.21 -0.25 -0.17 0.10 |
| KSSQSMLYESHNKNSVA | WASTRES | QQYHRLPLS | 1.38 2.20 0.74 1.50 1.64 0.87 |
| KSSQSVLFESRNKNSVA | DASTREQ | QQYHRLPLS | 0.72 0.38 0.35 0.24 0.21 0.48 |
| KLRQSWLYESRNKNSVA | NASQRES | QQYHRLPLS | -0.36 -0.17 -0.32 -0.49 -0.20 -0.13 |
| QFHSTMAGDQRNDHSIA | NATWAVP | QQYFRLPLS | 0.57 0.70 0.48 0.32 0.48 0.75 |
| KQSQSVLMESVNKNSVA | DASTRES | QQYHRLPLS | -0.24 -0.12 -0.12 -0.17 0.04 0.07 |
| KLPQSMLYESRNKNSVA | NASTREV | QQYHRLPLS | 0.11 -0.07 0.05 -0.23 0.02 0.26 |
| TISQSAHMESHNKNNVA | DLNLRGS | QQYDRLPLS | 0.77 0.83 0.19 0.68 0.60 0.77 |
| KVPQSMLYESRNANSVA | NASQRLE | QQYHRLPLS | 0.23 0.15 -0.04 -0.08 -0.05 0.17 |
| HMSFLTLGGMRQKNSVA | QMTTREN | QQYDRLPLV | 1.25 0.39 0.69 0.66 0.38 0.71 |
| KISQSWLMEPRNSNSVA | NASTRQM | QQYHRLPLS | 0.24 0.12 0.06 0.05 -0.16 0.26 |
| HLSQSHLYESRNKNSVA | NASTRES | QQYHRLPLS | 0.56 0.49 0.10 1.02 0.63 1.04 |
| KSSQSVLYESRNKNSVA | WASTRWS | QQYHRLPLS | 0.94 0.49 0.26 2.03 1.21 0.27 |
| CSGQSVTYESRNKNSVA | WASTRES | QQYHRLPLS | 1.15 1.68 0.16 0.87 0.40 0.87 |
| KLSWSWLYESRNKNSVA | GASTRES | QQYHRLPLS | -0.19 -0.06 -0.24 -0.32 -0.10 -0.09 |
| KSSNSVLGEERNKNSVA | RASTRES | QQYHRLPLS | 0.25 0.27 0.09 0.42 0.47 0.17 |
| KISQSVLYESRNKNSVA | SASTRMP | QQYHRLPLS | -0.11 -0.29 -0.19 -0.34 -0.28 -0.19 |
| KLVNSTLYESRQKNSVA | QASTRES | QQYHRLPLS | 1.10 0.88 1.13 0.76 1.15 1.21 |
| GMSDSMTETIADANHIA | DGEARDV | QQYARLPLI | 1.08 2.33 1.06 0.99 0.93 1.14 |
| MISQLYNMGTFAINSVA | QATIRNS | QQYDRLPLA | 1.74 2.04 1.83 1.90 1.78 n.d. |
| MISQVMNTLTREGNNVA | DLAEREN | QQYFRLPLS | 2.10 2.09 n.d. n.d. 1.63 1.77 |
| NISESMYFQSRNGNNIA | EMSTRER | QHYHRLPLS | 1.97 1.58 1.47 1.02 1.28 1.60 |
| HITYGMQVAGRHSKSIA | QAETRMK | QQYDRLPLS | n.d. n.d. n.d. n.d. n.d. n.d. |
| VFSGQWDLNTTVNSAVA | NVSERML | QQYNRLPLM | 1.15 1.20 1.03 1.73 1.50 1.37 |
| TISQLMYYESRNKNNVA | GTSTRES | QCYHRLPLS | 0.26 0.24 0.20 0.22 0.26 0.33 |
| MMSQVTGQGMRHRNNVA | QTETREP | QQYDRLPLV | 0.76 0.57 0.79 0.42 0.56 0.77 |
| KCSQSVLYESRNKNSVA | DASTRSS | QQYHRLPLS | 0.59 0.62 0.41 0.50 0.10 0.60 |
| KFQQSQLYEKRNQNSVA | SASYRMS | QQYHRLPLS | 0.60 0.47 0.85 0.72 0.71 0.60 |
| KIYQLGLGSQKIMRNIA | ETSTRCL | QSYQRLPLS | 1.21 0.82 0.89 0.59 0.65 0.91 |
| QVRDEQWAEGMNIQSIA | EGEVSKD | QQYNRLPLS | 0.09 n.d. n.d. n.d. 0.79 n.d. |
| KSAESVVYESRNLNSVA | WASTRES | QQYHRLPLS | 2.18 n.d. 2.75 n.d. n.d. n.d. |
| KMSQSVLMESRNCNSVA | DASTRES | QQYVRLPLS | 0.57 0.93 0.40 0.44 0.22 0.35 |
| KLSMTYRFETEEKNSIA | ELVTRMS | QQYHRLPLS | 0.62 0.21 0.21 1.11 0.53 0.41 |
| MYSQSYLGEQRNKNSVA | HASTREE | QQYHRLPLS | 0.21 0.18 0.18 -0.07 -0.03 0.04 |
| KLVQFMNRGTHHTSNIA | DAQNRCD | QQYARLPLA | 0.50 -0.02 0.21 -0.23 -0.01 -0.02 |

The last 3 entries again:

CDR-L1	CDR-L2	CDR-L3	log10 Kd (nM) by replicate
KLSMTYRFETEEKNSIA	ELVTRMS	QQYHRLPLS	0.62 0.21 0.21 1.11 0.53 0.41
MYSQSYLGEQRNKNSVA	HASTREE	QQYHRLPLS	0.21 0.18 0.18 -0.07 -0.03 0.04
KLVQFMNRGTHHTSNIA	DAQNRCD	QQYARLPLA	0.50 -0.02 0.21 -0.23 -0.01 -0.02

The authors' rule: three or more of the six replicates give a measured affinity, fewer mean a poor binder. Three control strains display no target. For all light chain designs, 4% of the pairings with them gave a signal, with a median of 2.64 and one signal in twenty below 1.59, so weak values seen in few replicates may be background. A sequence measured in both rounds can read differently, since the two assays cover different ranges. The parent sequence was in this pool as ten entries: three were never detected, three once, and four in most replicates, with averages from 0.34 to 2.37.